Test results reported in patent publication EP4837906A1, “NOVEL COMPOUND USED AS CBP/PA300 INHIBITOR, AND PHARMACEUTICAL COMPOSITION FOR PREVENTING OR TREATING CANCER, INFLAMMATORY DISORDERS, OR AUTOIMMUNE DISEASES COMPRISING SAME AS ACTIVE INGREDIENT” (dated 2026).

Chains of the proteins cited; added tags and fusions are not shown. Residues count along the entry.
UniProt Q92793, 1085-1192 limits assumed: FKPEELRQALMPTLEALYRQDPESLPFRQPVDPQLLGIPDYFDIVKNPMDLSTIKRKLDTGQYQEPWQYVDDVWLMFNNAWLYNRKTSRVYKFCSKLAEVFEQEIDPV

Columns and labels:
BRD4 (BD1) protein = BRD4 (BD1) protein (Homo sapiens, UniProt O60885); assay: BRD4 inhibitory activity, TR-FRET assay of BRD4 bromodomain with Ac-H4 peptide; conditions: read-out: BRD4 (BD1) IC50, BRD4 (BD1) protein 7.5 nM, Ac-H4 peptide 15 nM, 2 hours at room temperature
Experimental: BRD4 inhibitory activity was measured using a time resolved fluorescence resonance energy transfer (TR-FRET) experiment to verify the activity of BRD4 bromodomain.
(§1) The assay was performed in a final volume of 14 µl, optimized based on a CREBBP time resolved fluorescence resonance energy transfer (TR-FRET) assay kit (BPS Bioscience, cat. 32613) to maximize an assay window, and performed in a final volume of 14 µl, while maximizing the assay window. A TR-FRET fluorescence acceptor and a Tb donor were diluted in an assay buffer containing 2-[4-(2-hydroxyethyl)piperazin-1-yl]ethanesulfonic acid (hereafter, referred to as an assay buffer, BPS Bioscience, cat. 33012), and 3 µl of each solution was transferred to all wells of a white 384-low-volume well plate (Corning, cat. 4513). 2 µl of 4X Ac-H4 peptide (final concentration 15 nM) was transferred to high control wells and test wells. Each compound was prepared at 10 concentration points by serially diluting 3-fold from the highest concentration in a dimethyl sulfoxide solvent. The compound at each concentration was then diluted in the assay buffer to prepare a diluted compound solution that was 4-fold more concentrated than the final concentration. 2 µl of each compound or dimethyl sulfoxide prepared in this way was distributed into an assay plate so that the final test concentration was a minimum of 0.5 µM to a maximum of 10 µM (final dimethyl sulfoxide concentration 1%). 6 µL of 1X assay buffer was added to low control wells and 2 µl was added to high control and test wells. Then, 2 µl of 4X BRD4 (BD1) protein (final concentration 7.5 nM, BPS bioscience, cat 31040) was added to initiate a PPI reaction. The plate was reacted at room temperature for 2 hours before measuring the signal. The TR-FRET signal was measured using an EnVision Multilabel plate reader (PerkinElmer; Mirror LNACE/DELFIA Dual/Bias). For data analysis, the values of each well were obtained using a TR-FRET ratio ((Signal 665 nm/Signal 615 nm) X20000. Data analysis was performed using the TR-FRET ratio ((Signal 665 nm/Signal 615 nm) X20000. Data were reported as percent inhibition compared to control wells based on the following equation: %Activity = ((FRETcompound - FRETLow av)/(FRETHigh av - FRETLow av)) X100. IC50 analysis was determined by standard 4 parameter curve fitting according to an algorithm using GraphPad Prism 7.0 (GraphPad Software Inc., La Jolla, CA, USA). All data are expressed as mean ± standard error of the mean (SEM).

CBP BRD protein = CBP BRD protein (Homo sapiens, UniProt Q92793); assay: CBP inhibitory activity, TR-FRET assay of CBP bromodomain with Ac-H4 peptide; conditions: read-out: CBP BRD IC50, CBP BRD protein 7.5 nM, Ac-H4 peptide 85 nM, 2 hours at room temperature
Experimental: CBP inhibitory activity was measured using a time resolved fluorescence resonance energy transfer (TR-FRET) experiment to verify the activity of CBP bromodomain.
as §1, with “32619)” for “32613)”, “85” for “15”, “CBP BRD” for “BRD4 (BD1)”, “31128)” for “31040)”, “Dual/Bias).” for “Dual/Bias). For data analysis, the values of each well were obtained using a TR-FRET ratio ((Signal 665 nm/Signal 615 nm) X20000. Data analysis was performed using the TR-FRET ratio ((Signal 665 nm/Signal 615 nm) X20000. Data were reported as percent inhibition compared to control wells based on the following equation: %Activity = ((FRETcompound - FRETLow av)/(FRETHigh av - FRETLow av)) X100. IC50 analysis was determined by standard 4 parameter curve fitting according to an algorithm using GraphPad Prism 7.0 (GraphPad Software Inc., La Jolla, CA, USA). All data are expressed as mean ± standard error of the mean (SEM).”
For data analysis, the values of each well were obtained using a TR-FRET ratio ((Signal 665 nm/Signal 615 nm)X20000. Data analysis was performed using the TR-FRET ratio ((Signal 665 nm/Signal 615 nm)X20000. Data were reported as percent inhibition compared to control wells based on the following equation: %Activity = ((FRETcompound - FRETLow av)/(FRETHigh av - FRETLow av))X100. IC50 analysis was determined by standard 4 parameter curve fitting according to an algorithm using GraphPad Prism 7.0 (GraphPad Software Inc., La Jolla, CA, USA). All data are expressed as mean ± standard error of the mean (SEM).

| Compound | IC50 (BRD4 (BD1) protein) [µM] | IC50 (CBP BRD protein) [nM] |
| --- | --- | --- |
| CNc1ccc(-c2ccc3c(c2)nc(-c2cncn2C)n3-c2ccc3c(c2)n(C)c(=O)n3C)cc1 | > 5 | 500 to 5000 |
| CNC(=O)c1ccc(-c2ccc3c(c2)nc(-c2ccccc2F)n3-c2ccc3c(c2)n(C)c(=O)n3C)cc1F | > 5 | 500 to 5000 |
| Cn1cncc1-c1nc2cc(-c3cn(CC(=O)NCC(F)(F)F)nn3)ccc2n1-c1ccc2c(c1)n(C)c(=O)n2C | > 5 | 500 to 5000 |
| Cn1cncc1-c1nc2cc(-c3cnn(CCO)c3)ccc2n1-c1ccc2c(c1)n(C)c(=O)n2C | > 5 | 500 to 5000 |
| CNC(=O)c1ccc(-c2ccc3c(c2)nc(C(C)(C)NC(=O)OC(C)(C)C)n3-c2ccc3c(c2)n(C)c(=O)n3C)cc1F | > 5 | > 5000 |
| Cn1cncc1-c1nc2cc(C(N)=NO)ccc2n1-c1ccc2c(c1)n(C)c(=O)n2C | > 5 | > 5000 |
| CCOC(=O)Cn1cc(-c2ccc3c(c2)nc(-c2cncn2C)n3-c2ccc3c(c2)n(C)c(=O)n3C)nn1 | > 5 | 500 to 5000 |
| CNC(=O)c1ccc(-c2ccc3c(c2)nc(-c2cccc(C)c2C)n3-c2ccc3c(c2)n(C)c(=O)n3C)cc1F | > 5 | < 500 |
| Cn1cncc1-c1nc2cc(-c3ccccc3F)ccc2n1-c1ccc2c(c1)n(C)c(=O)n2C | > 5 | 500 to 5000 |
| Cn1cncc1-c1nc2cc(-c3ccnc(N)c3)ccc2n1-c1ccc2c(c1)n(C)c(=O)n2C | 0.5 to 5 | < 500 |
| CNC(=O)c1ccc(-c2ccc3c(c2)nc(C(C)(C)C(=O)OC)n3-c2ccc3c(c2)n(C)c(=O)n3C)cc1F | > 5 | 500 to 5000 |
| CNC(=O)c1ccc(-c2ccc3c(c2)nc(-c2cncnc2)n3-c2ccc3c(c2)n(C)c(=O)n3C)cc1F | > 5 | 500 to 5000 |
| Cn1cc(-c2ccc3c(c2)nc(-c2cncn2C)n3-c2ccc3c(c2)n(C)c(=O)n3C)cn1 | 0.5 to 5 | 500 to 5000 |
| CNC(=O)c1ccc(-c2ccc3c(c2)nc(-c2cccn2C)n3-c2ccc3c(c2)n(C)c(=O)n3C)cc1F | > 5 | < 500 |
| CNC(=O)c1ccc(-c2ccc3c(c2)nc(-c2cccc(F)c2C)n3-c2ccc3c(c2)n(C)c(=O)n3C)cc1F | > 5 | < 500 |
| CNC(=O)c1ccc(-c2ccc3c(c2)nc(-c2cccc(C(F)(F)F)c2)n3-c2ccc3c(c2)n(C)c(=O)n3C)cc1F | > 5 | 500 to 5000 |
| CNC(=O)c1ccc2c(c1)nc(-c1c[nH]c3cc(C)ccc13)n2-c1ccc2c(c1)n(C)c(=O)n2C | > 5 | 500 to 5000 |
| CNC(=O)c1ccc(-c2ccc3c(c2)nc(-c2ccnc(O)c2)n3-c2ccc3c(c2)n(C)c(=O)n3C)cc1F | > 5 | 500 to 5000 |
| CNC(=O)c1ccc(-c2ccc3c(c2)nc(-c2cccc(C#N)c2C)n3-c2ccc3c(c2)n(C)c(=O)n3C)cc1F | > 5 | 500 to 5000 |
| CN(C)c1ccc(-c2ccc3c(c2)nc(-c2cncn2C)n3-c2ccc3c(c2)n(C)c(=O)n3C)cc1 | > 5 | < 500 |
| Cn1cncc1-c1nc2cc(-c3ccccn3)ccc2n1-c1ccc2c(c1)n(C)c(=O)n2C | > 5 | 500 to 5000 |
| CNC(=O)c1ccc(F)c(-c2ccc3c(c2)nc(-c2cncn2C)n3-c2ccc3c(c2)n(C)c(=O)n3C)c1 | > 5 | < 500 |
